Source: ChEMBL document CHEMBL1127818, “Identification of L-tryptophan derivatives with potent and selective antagonist activity at the NK1 receptor” (J Med Chem, 1994)

Chains of the proteins cited; added tags and fusions are not shown.
UniProt P25103, whole entry: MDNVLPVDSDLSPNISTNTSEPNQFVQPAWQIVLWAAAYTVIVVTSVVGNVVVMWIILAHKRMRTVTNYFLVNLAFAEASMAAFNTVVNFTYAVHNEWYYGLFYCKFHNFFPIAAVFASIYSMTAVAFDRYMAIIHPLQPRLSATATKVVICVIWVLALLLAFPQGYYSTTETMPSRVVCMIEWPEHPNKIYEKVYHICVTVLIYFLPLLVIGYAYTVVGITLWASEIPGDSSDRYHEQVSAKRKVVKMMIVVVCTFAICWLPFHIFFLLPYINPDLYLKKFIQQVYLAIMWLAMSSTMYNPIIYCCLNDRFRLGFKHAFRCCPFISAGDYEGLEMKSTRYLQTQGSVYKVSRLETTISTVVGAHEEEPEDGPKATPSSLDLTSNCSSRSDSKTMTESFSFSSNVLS

Target: Substance-P receptor (Homo sapiens, UniProt P25103)
Assay: Binding affinity towards cloned neurokinin 1 receptor, based on the displacement of [125I]-labeled substance P

- IC50: 600 nM
SMILES: O=C(N[C@@H](Cc1c[nH]c2ccccc12)C(=O)OCc1ccccc1Cl)c1ccccc1
